Assay results from patent US20010036948A1 (priority 1998, published 2001).

Tested on: T/G Human Aortic Smooth Muscle Cells
Format: cell-based
Further: key: −: Lethal treatment, no cells left viable, all rounded, shriveled and dead; −/+: Some treated cells remain viable, about equal amount of clearly dead cells; +/−: Most cells remain viable, detectable number of dead cells; 1+: All cells appear viable, same density as when treated; 2+: Minimal proliferation, compared to control; 3+: Moderate proliferation compared to control; 4+: Maximal growth, unaffected by treatment.

For `CS(=O)(=O)OCCCCOS(C)(=O)=O` [Busulfan, busulfan, reference compound], the Growth score was 4+.
